According to patent publication US10662476B2 (priority 2011, dated 2020):

Tested on: adolescents undergoing posterior spine fusion
Experiment: Acute tolerance to morphine analgesia after propofol/remifentanil anesthesia in scoliosis surgery (morphine consumption, NRS pain scores) by TRPA1 genotype
Details: morphine patient-controlled analgesia after propofol/remifentanil anesthesia, NRS at rest

CN1CC[C@]23c4c5ccc(O)c4O[C@H]2[C@@H](O)C=C[C@H]3[C@H]1C5 [morphine]
NRS Pain scores over 48 hours Mean ± S.D. (TRPA1 rs1025928 genotype CC (N=13)): 5.846 ± 3.132
NRS Pain scores over 48 hours Mean ± S.D. (TRPA1 rs1025928 genotype CT (N=23)): 6.391 ± 2.935
NRS Pain scores over 48 hours Mean ± S.D. (TRPA1 rs1025928 genotype TT (N=6)): 6.667 ± 1.966
